Experimental findings from PMC11272584 (Nature Metabolism, 2024) are described below.

Changes are numbered by the printed parent chain. Read-outs that look alike come from different tables or passages of the source.

Test [1] has as its target T1, GIPR G144S (Homo sapiens, UniProt P48546, G144S).
T1 construct: host or cells: HEK293
As to the kind of experiment: cAMP accumulation. Format: cell-based.

Test [2] concerns the target WT GIPR (Homo sapiens, UniProt P48546). Particulars: for logEC50 (cAMP): mean of n = 3.
Test [3] deals with T2, GIPR V99I (Homo sapiens, UniProt P48546, V99I).
T2 sequence (P48546 22-466 V99I): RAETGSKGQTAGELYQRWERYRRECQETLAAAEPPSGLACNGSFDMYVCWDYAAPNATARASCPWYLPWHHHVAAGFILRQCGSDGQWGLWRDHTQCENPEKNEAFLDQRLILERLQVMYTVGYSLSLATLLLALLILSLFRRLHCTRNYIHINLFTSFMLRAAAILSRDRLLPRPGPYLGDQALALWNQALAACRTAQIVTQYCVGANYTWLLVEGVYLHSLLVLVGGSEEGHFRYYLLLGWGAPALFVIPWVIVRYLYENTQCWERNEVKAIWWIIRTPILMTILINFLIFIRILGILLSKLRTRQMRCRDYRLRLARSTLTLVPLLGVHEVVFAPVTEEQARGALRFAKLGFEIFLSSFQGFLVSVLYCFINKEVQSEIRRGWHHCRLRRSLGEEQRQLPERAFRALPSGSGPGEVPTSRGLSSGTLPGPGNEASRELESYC
Particulars: HEK293A, 1 µM GIP minus vehicle, n = 4, P = 0.000746.

In test [4] the target is T3, GIPR T168A (Homo sapiens, UniProt P48546, T168A).
T3 sequence (P48546 22-466 T168A): T2 sequence (P48546 22-466 V99I) with I78V, T147A
The note with it: GIPR T168A (2.45), mean, n = 5, duplicate.

Test [5] deals with T4, GIPR I378M (Homo sapiens, UniProt P48546, I378M).
T4 sequence (P48546 22-466 I378M): T2 sequence (P48546 22-466 V99I) with I78V, I357M

The target in test [6] is T5, GIPR E291K (Homo sapiens, UniProt P48546, E291K).
T5 sequence (P48546 22-466 E291K): T2 sequence (P48546 22-466 V99I) with I78V, E270K
The experiment in a line: cAMP accumulation. Format: cell-based. More on the design: host or cells: HEK293.

Test [7] has as its target T6, GIPR L13F (Homo sapiens, UniProt P48546).
T6 sequence (P48546 22-466): T2 sequence (P48546 22-466 V99I) with I78V
Particulars: GIPR L13F (ECD), mean, n = 5, duplicate.

Regarding “glucose-dependent insulinotropic polypeptide [GIP]”, the “cAMP (Emax)” value in test [1] (HEK293, GIP(1–42) 1 pM–100 nM, 30 min 37 °C, mean of n = 3) is on record as 130 % of WT GIPR activity; in test [6] (HEK293, GIP(1–42) 1 pM–100 nM, 30 min 37 °C, mean of n = 4), 230 % of WT GIPR activity. Further, the “logEC50 (cAMP)” value is listed as -9.2 in test [1] (HEK293, Hill slope 1.0, mean of n = 3); -8.9 in test [2] (10 ng receptor DNA); -9.9 in test [2] (50ng receptor DNA); -9.6 in test [2] (100 ng receptor DNA); -10.7 in test [2] (250 ng receptor DNA); -11.5 in test [2] (500 ng receptor DNA). For the same substance, the “logEC50 (cAMP)” value was -11.5 in test [2] (100 µg receptor DNA) and -9.5 in test [6] (HEK293, Hill slope 1.0, mean of n = 4). Moreover, in test [2] (10 ng to 10 µg receptor DNA), the “Potency of GIP (cAMP) with decreasing GIPR levels” value is “right shift towards lower potency”. The “Mean of ΔBRET” value in test [3] stood at 0.0517. Also, the “logEC50 (Arrestin)” value is on record as -9.3 in test [4] (Hill slope 1.0); -9.1 in test [5] (GIPR I378M (7.43), Hill slope 1.0, mean, n = 3, duplicate); -8.7 in test [7] (Hill slope 1.0). Also, the “Arrestin (Emax)” value in test [4] (normalized to WT GIPR) was 22; in test [5] (GIPR I378M (7.43), normalized to WT GIPR, mean, n = 3, duplicate), 136; in test [7] (normalized to WT GIPR), 68. For the same substance, in test [5] (I378M (GoFarr)), the β-arrestin recruitment class result was “more β-arrestin recruitment”.
